# Values joined by “and” are separate entries in the source; they are usually repeats but may differ in a detail not shown here. Equal entries are not always repeated. For part of these data: Most of the hits are listed elsewhere, so they are rarer here than in the full data. The entries are a selection whose mix differs from that of the whole data set. Records with an inconclusive call do not appear. Active and inactive are the calls of the source. Unless noted, calls come from the whole dose curve; as a rule, active = well fitted curve in the direction sought with a large enough effect; inconclusive = small, poorly fitted or top-dose-only effect, or another doubt; inactive = no such curve, though single readings can be large; an effect the other way counts as inactive or inconclusive.
# Protein sequences, listed by entry. Tags and fused reporters are not part of them. Lines headed by an entry give the natural chain unless they say otherwise; changes in a name come on top.
# UniProt P11712, whole entry, looked up: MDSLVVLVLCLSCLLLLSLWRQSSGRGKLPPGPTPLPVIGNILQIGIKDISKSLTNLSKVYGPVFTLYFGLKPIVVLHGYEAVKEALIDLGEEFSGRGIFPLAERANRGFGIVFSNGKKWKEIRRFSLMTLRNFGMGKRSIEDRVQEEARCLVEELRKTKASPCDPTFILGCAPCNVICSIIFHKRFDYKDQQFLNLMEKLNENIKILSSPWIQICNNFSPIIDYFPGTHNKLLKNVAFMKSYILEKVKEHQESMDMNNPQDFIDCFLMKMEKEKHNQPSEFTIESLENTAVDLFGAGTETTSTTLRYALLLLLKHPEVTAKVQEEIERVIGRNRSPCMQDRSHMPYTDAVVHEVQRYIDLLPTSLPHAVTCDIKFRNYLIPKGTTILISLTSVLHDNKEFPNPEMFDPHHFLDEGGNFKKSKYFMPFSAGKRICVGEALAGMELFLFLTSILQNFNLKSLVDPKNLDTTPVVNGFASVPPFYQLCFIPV
# UniProt P08684, whole entry, looked up: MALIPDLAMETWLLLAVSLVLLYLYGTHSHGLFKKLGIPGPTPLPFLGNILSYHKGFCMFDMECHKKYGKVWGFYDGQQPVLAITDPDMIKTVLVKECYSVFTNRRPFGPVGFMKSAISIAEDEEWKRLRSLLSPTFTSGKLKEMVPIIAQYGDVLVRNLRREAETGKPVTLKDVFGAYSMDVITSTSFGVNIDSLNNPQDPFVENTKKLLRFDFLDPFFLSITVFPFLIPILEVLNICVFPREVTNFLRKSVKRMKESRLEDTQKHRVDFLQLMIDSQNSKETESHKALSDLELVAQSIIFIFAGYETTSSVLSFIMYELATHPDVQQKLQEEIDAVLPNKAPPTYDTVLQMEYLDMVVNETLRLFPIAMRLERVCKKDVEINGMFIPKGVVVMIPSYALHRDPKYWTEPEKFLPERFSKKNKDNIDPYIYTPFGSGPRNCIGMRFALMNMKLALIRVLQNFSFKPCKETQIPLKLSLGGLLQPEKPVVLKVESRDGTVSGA
# UniProt P10635, whole entry, looked up: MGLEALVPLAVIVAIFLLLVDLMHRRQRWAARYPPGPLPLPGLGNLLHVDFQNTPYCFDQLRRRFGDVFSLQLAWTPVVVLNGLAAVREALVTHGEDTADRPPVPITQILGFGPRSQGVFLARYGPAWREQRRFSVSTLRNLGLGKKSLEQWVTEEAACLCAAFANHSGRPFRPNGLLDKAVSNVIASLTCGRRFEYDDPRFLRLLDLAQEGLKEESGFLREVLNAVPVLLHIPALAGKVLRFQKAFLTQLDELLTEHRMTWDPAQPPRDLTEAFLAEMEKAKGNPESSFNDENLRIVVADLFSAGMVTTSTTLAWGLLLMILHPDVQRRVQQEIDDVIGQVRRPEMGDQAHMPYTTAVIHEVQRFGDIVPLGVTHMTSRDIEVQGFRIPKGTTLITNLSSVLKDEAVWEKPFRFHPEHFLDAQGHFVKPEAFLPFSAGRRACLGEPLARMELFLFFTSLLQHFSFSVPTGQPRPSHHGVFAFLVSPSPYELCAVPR
# UniProt P33261, whole entry, looked up: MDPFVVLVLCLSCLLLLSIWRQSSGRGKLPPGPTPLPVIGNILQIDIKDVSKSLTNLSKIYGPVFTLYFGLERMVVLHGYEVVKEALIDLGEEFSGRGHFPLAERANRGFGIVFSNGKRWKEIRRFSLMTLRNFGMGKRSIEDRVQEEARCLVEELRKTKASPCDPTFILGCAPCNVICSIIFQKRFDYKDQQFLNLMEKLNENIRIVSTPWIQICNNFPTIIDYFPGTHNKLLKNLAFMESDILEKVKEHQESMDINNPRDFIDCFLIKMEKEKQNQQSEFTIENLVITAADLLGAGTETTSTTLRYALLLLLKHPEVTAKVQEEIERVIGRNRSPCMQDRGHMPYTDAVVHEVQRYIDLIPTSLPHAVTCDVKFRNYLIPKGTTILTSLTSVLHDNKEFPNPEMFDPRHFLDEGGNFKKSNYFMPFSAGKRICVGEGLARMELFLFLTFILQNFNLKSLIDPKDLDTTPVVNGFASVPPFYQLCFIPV
# UniProt Q12809: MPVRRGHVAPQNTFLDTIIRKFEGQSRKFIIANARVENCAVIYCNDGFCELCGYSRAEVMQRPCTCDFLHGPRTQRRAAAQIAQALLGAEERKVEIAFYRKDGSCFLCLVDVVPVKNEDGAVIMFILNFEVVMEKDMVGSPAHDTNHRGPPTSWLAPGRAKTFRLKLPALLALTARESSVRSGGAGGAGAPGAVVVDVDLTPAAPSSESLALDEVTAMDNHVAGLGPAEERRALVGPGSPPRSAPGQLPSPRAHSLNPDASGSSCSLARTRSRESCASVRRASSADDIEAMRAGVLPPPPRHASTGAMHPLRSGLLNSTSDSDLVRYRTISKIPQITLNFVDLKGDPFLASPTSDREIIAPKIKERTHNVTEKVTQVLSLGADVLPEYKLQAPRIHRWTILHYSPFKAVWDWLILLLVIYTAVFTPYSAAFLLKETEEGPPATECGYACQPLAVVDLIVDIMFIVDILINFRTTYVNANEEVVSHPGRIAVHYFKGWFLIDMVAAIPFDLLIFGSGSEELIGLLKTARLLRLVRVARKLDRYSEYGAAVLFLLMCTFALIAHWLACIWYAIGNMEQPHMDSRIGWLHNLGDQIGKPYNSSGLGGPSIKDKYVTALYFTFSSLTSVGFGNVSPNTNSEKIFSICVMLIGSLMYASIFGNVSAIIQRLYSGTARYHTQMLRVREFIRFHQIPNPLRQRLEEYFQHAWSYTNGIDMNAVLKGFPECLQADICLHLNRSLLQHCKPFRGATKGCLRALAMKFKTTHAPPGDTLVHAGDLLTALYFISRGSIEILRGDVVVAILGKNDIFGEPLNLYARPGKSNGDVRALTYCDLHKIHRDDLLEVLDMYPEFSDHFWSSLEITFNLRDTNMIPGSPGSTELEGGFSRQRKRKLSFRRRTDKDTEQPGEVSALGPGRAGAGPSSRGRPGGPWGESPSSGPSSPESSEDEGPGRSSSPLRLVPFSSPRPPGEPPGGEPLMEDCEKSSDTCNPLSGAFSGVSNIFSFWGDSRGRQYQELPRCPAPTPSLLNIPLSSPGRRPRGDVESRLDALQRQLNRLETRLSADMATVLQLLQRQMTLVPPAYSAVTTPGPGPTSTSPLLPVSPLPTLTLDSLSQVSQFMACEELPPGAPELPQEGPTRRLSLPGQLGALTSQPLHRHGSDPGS
# Columns and labels:
# [1] = target: Cytochrome P450 2C9 (Homo sapiens) (UniProt P11712); assay: qHTS Assay for Inhibitors and Substrates of Cytochrome P450 2C9 (AID 883); settings: recombinant CYP2C9, luciferin-H luminescence, 60 min; note: potency is the fitted concentration of half-maximal effect; nearly all actives have a fitted effect of over 60% in size
# [2] = target: Cytochrome P450 3A4 (Homo sapiens) (UniProt P08684); assay: qHTS Assay for Activators of Cytochrome P450 3A4 (AID 885); settings: recombinant CYP3A4, Luciferin-PPXE luminescence, 60 min; at 25.6 µM (top of the series); note: nearly all actives have a fitted effect of over 65% in size
# [3] = target: Cytochrome P450 2D6 (Homo sapiens) (UniProt P10635); assay: qHTS Assay for Inhibitors and Substrates of Cytochrome P450 2D6 (AID 891); settings: recombinant CYP2D6, luciferin-ME EGE luminescence; note: potency is the fitted concentration of half-maximal effect; nearly all actives have a fitted effect of over 60% in size
# [4] = target: Cytochrome P450 2C19 (Homo sapiens) (UniProt P33261); assay: qHTS Assay for Inhibitors and Substrates of Cytochrome P450 2C19 (AID 899); settings: recombinant CYP2C19, luciferin-H EGE luminescence; note: potency is the fitted concentration of half-maximal effect; nearly all actives have a fitted effect of over 60% in size
# [5] = target: Cytochrome P450 2D6 (Homo sapiens) (UniProt P10635); assay: Cytochrome P450 family 2 subfamily D member 6 (CYP2D6) small molecule antagonists: luciferase biochemical (cell-free) qHTS assay (AID 1645840; active = well fitted curve in the direction sought with a large enough effect in the repeat runs; an effect the other way counts as inactive or inconclusive; note: potency is the fitted concentration of half-maximal effect; nearly all actives have a fitted effect of over 55% in size); settings: P450-Glo CYP2D6 enzyme, luciferin luminescence, 1 h
# Method in brief: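 P450-Glo luminescent screen: recombinant CYP2D6 enzyme–proluciferin substrate mix preincubated with compound 10 min at room temperature, then NADPH regeneration added for 1 h at room temperature. Detection reagent added for 20 min; luciferin light read as relative luminescence units.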
# [6] = target: Voltage-gated inwardly rectifying potassium channel KCNH2 (Homo sapiens) (UniProt Q12809); assay: qHTS Assay for Small Molecule Inhibitors of the Human hERG Channel Activity (AID 588834); settings: U2OS BacMam hERG, FluxOR thallium flux fluorescence;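 note: potency is the fitted concentration of half-maximal effect; lower thallium flux fluorescence means stronger hERG block; nearly all actives have a fitted effect of over 50% in size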
structure (smiles),measurement,setting,value
O=c1c(O)c(-c2ccc(O)c(O)c2)oc2cc(O)cc(O)c12,Potency,[1],active: 7.94 µM
Clc1ccc(COC(Cn2ccnc2)c2ccc(Cl)cc2Cl)c(Cl)c1 (stereo unspecified),"activity change, positive = activation",[2],inactive: -95.3%
O=c1[nH]c2ccccc2n1C1CCN(CCCC(c2ccc(F)cc2)c2ccc(F)cc2)CC1,Potency,[3],active: 10 µM and active: 3.16 µM
same,Potency,[4],active: 10 µM
same,Potency,[5],active: 1.95 µM
Fc1ccc(C(OCCN2CCN(CCCc3ccccc3)CC2)c2ccc(F)cc2)cc1,Potency,[6],active: 112 nM and active: 224 nM

# — PubChem BioAssay (NCATS)
